From US20040192738A1, “2-(Butyl-1-sulfonylamino)-N-[1(R)-(6-methoxypyridin-3-yl)propyl] benzamide, its use as a medicament, and pharmaceutical preparations comprising it” (Aventis Pharma Deutschland GmbH, priority 2003, published 2004)

Sequences of proteins named here, by UniProt entry; tags and fusion partners are left off.
UniProt P22460, whole entry: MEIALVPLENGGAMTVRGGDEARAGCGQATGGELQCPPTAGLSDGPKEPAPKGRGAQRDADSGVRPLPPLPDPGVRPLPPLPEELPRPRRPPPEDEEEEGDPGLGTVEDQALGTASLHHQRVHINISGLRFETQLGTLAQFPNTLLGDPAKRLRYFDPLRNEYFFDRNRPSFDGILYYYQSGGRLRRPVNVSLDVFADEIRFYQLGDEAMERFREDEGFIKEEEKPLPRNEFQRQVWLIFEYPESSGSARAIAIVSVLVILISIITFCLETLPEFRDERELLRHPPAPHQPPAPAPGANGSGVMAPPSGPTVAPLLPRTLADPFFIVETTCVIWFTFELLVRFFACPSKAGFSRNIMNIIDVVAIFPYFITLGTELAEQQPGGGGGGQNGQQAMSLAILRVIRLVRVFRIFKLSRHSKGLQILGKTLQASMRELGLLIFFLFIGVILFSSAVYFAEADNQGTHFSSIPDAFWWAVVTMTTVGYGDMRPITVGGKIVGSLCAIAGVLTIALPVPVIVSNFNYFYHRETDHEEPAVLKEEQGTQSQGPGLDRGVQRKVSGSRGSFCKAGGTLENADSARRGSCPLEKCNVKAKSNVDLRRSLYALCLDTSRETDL

Biological target: T1, Kv1.5 channels (Homo sapiens, UniProt P22460)
T1 construct: expressed in transfected cells; host or cells: Xenopus laevis oocytes injected with in vitro synthesized RNA
Experiment: Kv1.5 currents in Xenopus oocytes, two microelectrode voltage clamp
Type: cell-based, humans
Method: Kv1.5 channels from humans were expressed in Xenopus oocytes. For this, oocytes were first isolated from Xenopus laevis and defolliculated. RNA encoding Kv1.5 and synthesized in vitro was then injected into these oocytes. After Kv1.5 protein expression for 1-7 days, Kv1.5 currents were measured at the oocytes using the two microelectrode voltage clamp technique. The Kv1.5 channels were in this case as a rule activated using voltage jumps to 0 mV and 40 mV lasting 500 ms. The bath was rinsed using a solution of the following composition: NaCl 96 mM, KCl 2 mM, CaCl2 1.8 mM, MgCl2 1 mM, HEPES 5 mM (titrated to pH 7.4 using NaOH). These experiments were carried out at room temperature. The following were employed for data acquisition and analysis: Geneclamp amplifier (Axon Instruments, Foster City, USA) and MacLab D/A converter and software (ADInstruments, Castle Hill, Australia). The substances according to the invention were tested by adding them to the bath solution in different concentrations. The effects of the substances were calculated as percentage inhibition of the Kv1.5 control current which was obtained when no substance was added to the solution. The data were then extrapolated using the Hill equation in order to determine the inhibitory concentrations IC50 for the respective substances.

[1] = human Kv1.5 expressed in Xenopus oocytes, room temperature, extrapolated using the Hill equation, read-out: IC50 (inhibition of Kv1.5 control current)

Row | SMILES | pIC50 [1] | pIC50
1 | CCCCS(=O)(=O)Nc1ccccc1C(=O)N[C@H](CC)c1ccc(OC)nc1 [formula I, 2-(butyl-1-sulfonylamino)-N-[1(R)-(6-methoxypyridin-3-yl)propyl]benzamide] | 5.00 | –
2 | CCCCS(=O)(=O)Nc1ccccc1C(=O)N[C@@H](CC)c1ccc(OC)nc1 [S enantiomer, 2-(butyl-1-sulfonylamino)-N-[1(S)-(6-methoxypyridin-3-yl)propyl]benzamide] | 5.62 | –
3 | CCCCS(=O)(=O)Nc1ccccc1C(=O)NC(CC)c1ccc(OC)nc1 (racemic) [2-(butyl-1-sulfonylamino)-N-[1-(6-methoxypyridin-3-yl)propyl]benzamide, reference compound] | – | 5.62

pIC50: −log10 of the molar value. Read-outs that look alike come from different tables or passages of the source.
